Drawing on patent US12091402B2 (Avilar Therapeutics, Inc., priority 2021, dated 2024), this text covers EC50 and Kd for two compounds.

Chains of the proteins cited; added tags and fusions are not shown.
UniProt P07306, whole entry: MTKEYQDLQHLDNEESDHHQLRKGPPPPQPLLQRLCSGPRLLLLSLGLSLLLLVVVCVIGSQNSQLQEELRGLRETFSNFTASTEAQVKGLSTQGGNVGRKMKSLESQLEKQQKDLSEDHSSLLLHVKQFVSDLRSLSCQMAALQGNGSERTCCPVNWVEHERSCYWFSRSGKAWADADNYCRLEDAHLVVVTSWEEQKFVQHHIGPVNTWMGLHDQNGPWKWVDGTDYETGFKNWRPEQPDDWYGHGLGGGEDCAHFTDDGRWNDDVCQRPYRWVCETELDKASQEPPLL
UniProt P07307, whole entry partner: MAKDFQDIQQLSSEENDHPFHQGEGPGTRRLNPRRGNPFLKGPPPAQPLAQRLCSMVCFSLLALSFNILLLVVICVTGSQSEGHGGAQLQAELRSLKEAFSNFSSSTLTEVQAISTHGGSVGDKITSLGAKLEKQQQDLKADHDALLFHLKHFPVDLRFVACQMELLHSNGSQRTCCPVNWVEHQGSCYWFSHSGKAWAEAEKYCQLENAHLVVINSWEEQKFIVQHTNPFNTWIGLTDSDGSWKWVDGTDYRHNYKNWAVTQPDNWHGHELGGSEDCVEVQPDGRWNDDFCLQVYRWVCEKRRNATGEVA

By EC50 is commonly meant the midpoint of the concentration-response curve. A word on the Kd: it is the equilibrium constant for the complex coming apart.

The target of assay [1] is ASGPR receptor on the cell surface (HepG2 cells) (Homo sapiens, UniProt P07306). Kind of assay: Ternary complex formation assay (flow cytometry, HepG2). The format is cell-based. The following applies: read-out: Ternary Complex EC50, 100 nM AF488-labeled antibody, 1 hour at 4° C., numeric bounds. A general note: In flow cytometry, cells or beads pass a laser one at a time.

For another assay, the system named is HepG2 cells. Kind of assay: Cellular uptake assay of AF488-labeled antibody (HepG2). The format is cell-based. The following applies: read-out: Uptake Assay EC50, 100 nM AF488-labeled antibody, 37° C. for 6 hours, numeric bounds.
The target in another assay is ASGPR (Homo sapiens, UniProt P07306). Kind of assay: Affinity to ASGPR by surface plasmon resonance (SPR). The following applies: read-out: ASGPR SPR Binding: KD; Biacore 8K, 25° C.; class symbols. On the technique in general: SPR reads the build-up and loss of mass on a sensor chip optically.

In the case of `O=C(N[C@H]1[C@H]2OC[C@](COCCOCCOCCOCCOCCOCCOCCNc3ccc([N+](=O)[O-])cc3[N+](=O)[O-])(O2)[C@H](O)[C@@H]1O)C(F)(F)F`, the EC50 (in assay [1]; with HepG2 cells) was over 10 µM each time.
With `OC[C@@]12CO[C@@H](O1)[C@H](Nc1c(C(F)(F)F)ccnc1Cl)[C@@H](O)[C@H]2O`, the Kd on ASGPR was 10 to 100 µM.
